# Antibody variant affinities, Ab-91 heavy chain, assay 2

Reference: Engelhart et al. 2022, doi:10.1038/s41597-022-01779-4. File: FLAb, binding data.

Target: peptide PDVDLGDISGINAS, taken from heptad repeat 2 (HR2) of SARS-CoV-2 spike.

Ab-91 is the parent antibody, in scFv form: VL, then a 15-residue (Gly4Ser)3 linker, then VH. The light chain is unchanged in all variants.
VL: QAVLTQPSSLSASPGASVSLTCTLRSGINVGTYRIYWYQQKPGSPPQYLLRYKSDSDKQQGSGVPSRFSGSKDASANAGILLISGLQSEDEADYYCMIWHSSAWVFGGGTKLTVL
VH: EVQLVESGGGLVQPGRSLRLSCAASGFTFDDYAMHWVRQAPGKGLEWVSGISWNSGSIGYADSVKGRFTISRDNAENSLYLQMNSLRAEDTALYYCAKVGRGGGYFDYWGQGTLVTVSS

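The parent was found by panning a naive human phage display library on the peptide. Variants in AAYL51 differ from the parent at up to three CDR positions; double and triple changes were sampled at random. The assay is AlphaSeq: two haploid yeast populations carry antibody and antigen on their surface. Binding brings cells together so that they mate, and sequencing counts the barcode pairs among the diploids. Read counts were normalised to the haploid input and turned into Kd by a linear fit to BCL2-family pairs of known affinity, for each replicate. Mating was done three times.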

Changes read parent residue, position, new residue, counted from the first residue of the VH shown. Affinities are written as log10 Kd with Kd in nM; a lower number is a better binder. Where no diploid with the target was found in that replicate, the entry reads "ND": below detection, most likely a poor binder, though not proof of it.

Variant G26M+F27V+Y105K gave ND, ND, 4.22 (controls 1 of 9).
Variant G26F+D31C+G100M gave ND, ND, ND (controls 0 of 9).
Variant A61R+G102N+G103S gave 4.53, ND, 5.21 (controls 5 of 9).
Variant W53Q+I58G+Y105S gave ND, ND, ND (controls 1 of 9).
Variant F29C+G50E+N54C gave ND, ND, ND (controls 1 of 9).
Variant G26D+S55V+G104P gave 4.40, ND, ND (controls 2 of 9).
Variant T28I+Y60L+Y108I gave ND, ND, ND (controls 0 of 9).
Variant D30R+M34F+Y105Q gave ND, 4.66, ND (controls 1 of 9).
Variant A33G+S63I+F106C gave ND, ND, ND (controls 0 of 9).
Variant F29K+V99K gave ND, ND, ND (controls 0 of 9).
Variant H35D+A61I+R101L gave ND, ND, 3.95 (controls 1 of 9).
Variant I58C+D62P+G102R gave ND, ND, ND (controls 0 of 9).
Variant D62S+K65I+Y108G gave ND, ND, ND (controls 1 of 9).
Variant F27T+V99C+R101L gave ND, ND, ND (controls 0 of 9).
Variant I58Y+D62G gave 3.39, ND, ND (controls 0 of 9).
Variant F29D+N54L+D107V gave 5.78, 4.71, ND (controls 5 of 9).
Variant G26H+D30E+Y105S gave ND, ND, 4.03 (controls 2 of 9).
Variant D30G+D62H+Y108T gave 1.03, 1.09, 0.65 (controls 2 of 9).
Variant H35R+W53Q+S55R gave 5.69, ND, ND (controls 0 of 9).
Variant S55G gave 0.99, 0.80, 0.26 (controls 1 of 9).
Variant T28S+G100K+Y108D gave 2.29, 2.51, 2.15 (controls 3 of 9).
Variant D30A+D31H+W53A gave 1.31, 1.42, 0.76 (controls 2 of 9).
Variant W53D+I58L+Y60V gave 4.78, 5.93, 5.21 (controls 7 of 9).
Variant M34C+I58P+Y108N gave 4.71, 5.75, 5.36 (controls 3 of 9).
Variant T28D+W53I+G103A gave ND, ND, 2.32 (controls 0 of 9).
Variant T28C+G56S+G102Q gave 4.00, 4.10, ND (controls 1 of 9).
Variant T28H+D30I+D62S gave ND, ND, ND (controls 1 of 9).
Variant A33C+G100A+Y105V gave ND, ND, ND (controls 0 of 9).
Variant Y32S+G103I gave ND, ND, ND (controls 1 of 9).
Variant I51M+S52N+G59P gave ND, ND, ND (controls 4 of 9).
Variant G26Q+T28S+Y60R gave ND, ND, ND (controls 0 of 9).
Variant G26T+G50C+G59S gave ND, 4.63, 4.23 (controls 4 of 9).
Variant A61L+V64C+G100N gave ND, ND, ND (controls 1 of 9).
Variant A33Q+M34C+F106K gave 5.20, 4.28, 4.46 (controls 4 of 9).
Variant Y32E+W53K+F106V gave ND, ND, ND (controls 1 of 9).
Variant I51R+S55P+K65C gave ND, ND, ND (controls 3 of 9).
Variant D30P+M34H+G103R gave ND, ND, ND (controls 0 of 9).
Variant A33L+F106Q+Y108A gave 4.24, ND, ND (controls 4 of 9).
Variant D30Y+Y60W+V99W gave 4.64, ND, ND (controls 1 of 9).
Variant M34G+W53H+G100W gave ND, ND, ND (controls 0 of 9).
Variant I58W+G102Q+G104T gave 4.79, 5.37, ND (controls 6 of 9).
Variant Y32D+H35C+G50F gave ND, ND, ND (controls 1 of 9).
Variant F27H+G50S+G104R gave ND, ND, ND (controls 0 of 9).
Variant D62S+F106S gave ND, ND, ND (controls 0 of 9).
Variant W53Q+G59W+D107A gave ND, ND, ND (controls 2 of 9).

As a blank, each scFv also met three strains without target: over library AAYL51, 21% of these pairings were detected, typically at 4.54 and seldom below 3.26. The control count says in how many pairings with the empty strains this scFv gave a signal.